Here are results for one compound from patent publication US20190255048A1, “PYRIMIDINE COMPOUND OR SALT THEREOF IN APPLICATION FOR MANUFACTURING PHARMACEUTICAL PRODUCT FOR PREVENTING AND/OR TREATING FLT3-RELATED DISEASE OR DISORDER” (SHENZHEN HAIBIN PHARMACEUTICAL CO., LTD, priority 2016, published 2019).

Amino acid sequences for entries named in this document (tags omitted). Residues count along the entry.
UniProt P36888, 27-993 limits assumed: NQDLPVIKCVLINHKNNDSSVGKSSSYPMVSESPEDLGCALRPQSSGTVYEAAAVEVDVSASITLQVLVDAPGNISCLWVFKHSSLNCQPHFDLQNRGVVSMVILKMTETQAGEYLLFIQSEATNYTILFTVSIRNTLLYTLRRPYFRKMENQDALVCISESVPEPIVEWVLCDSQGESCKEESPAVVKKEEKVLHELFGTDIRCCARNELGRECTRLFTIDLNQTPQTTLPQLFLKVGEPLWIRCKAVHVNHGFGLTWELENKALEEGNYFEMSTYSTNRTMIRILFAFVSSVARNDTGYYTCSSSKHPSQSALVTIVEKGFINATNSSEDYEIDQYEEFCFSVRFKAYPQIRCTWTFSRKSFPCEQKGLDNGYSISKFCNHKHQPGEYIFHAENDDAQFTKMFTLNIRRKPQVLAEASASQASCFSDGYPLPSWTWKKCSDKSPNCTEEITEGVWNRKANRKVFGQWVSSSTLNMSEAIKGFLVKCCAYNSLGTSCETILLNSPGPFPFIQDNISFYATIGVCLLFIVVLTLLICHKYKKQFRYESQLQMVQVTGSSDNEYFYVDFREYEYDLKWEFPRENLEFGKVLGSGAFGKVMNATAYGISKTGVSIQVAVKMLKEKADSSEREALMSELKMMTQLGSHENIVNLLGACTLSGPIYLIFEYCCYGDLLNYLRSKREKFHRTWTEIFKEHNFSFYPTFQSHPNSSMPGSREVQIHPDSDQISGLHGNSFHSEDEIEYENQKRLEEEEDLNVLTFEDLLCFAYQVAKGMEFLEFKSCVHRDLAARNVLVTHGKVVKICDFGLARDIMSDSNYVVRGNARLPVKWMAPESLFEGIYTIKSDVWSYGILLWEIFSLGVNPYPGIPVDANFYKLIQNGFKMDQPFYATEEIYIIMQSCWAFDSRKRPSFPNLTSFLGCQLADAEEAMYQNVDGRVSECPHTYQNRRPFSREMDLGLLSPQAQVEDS

Test [1] concerns mouse TEL-BaF3-FLT3/ITD (stably expressing FLT3/ITD mutant activated kinase). The experiment in a line: Effects on proliferation of cells (Cell Titer-Glo), TEL-BaF3-FLT3/ITD. The note with it: read-out: IC50 (μM), proliferation of cells, TEL-BaF3-FLT3/ITD, incubated for 72 hours, tested form: phosphate. The text has this: (§1) This example tested the effects of the compounds of the present invention (the compound shown in Formula (I), hydrochloride salt, phosphate, mesylate, lactate, acetate, sulphate, and hydrobromide thereof prepared in EXAMPLES 1-8 respectively) on proliferation of tumor cells, and further evaluated the inhibitory effects of the compounds on proliferation of tumor cells and selectivity of the compounds in inhibiting proliferation of tumor cells.
(6) mouse TEL-BaF3-FLT3/ITD (stably expressing FLT3/ITD mutant activated kinase);
(§2) The compounds at different concentration (0.000508 μM, 0.00152 μM, 0.00457 μM, 0.0137 μM, 0.0411 μM, 0.123 μM, 0.370 μM, 1.11 μM, 3.33 μM, 10 μM in DMSO) were added to the above-mentioned cells respectively, incubated for 72 hours, Cell Titer-Glo (Promega, United States of America) Chemiluminescence Kit was used to quantify ATP in living cells to detect the number of living cells, the results were shown as Table 3

In test [2] the test system is human acute monocytic leukemia cell strain MV4-11 (expressing FLT3/ITD mutant gene). Nature of the test: Effects on proliferation of tumor cells (Cell Titer-Glo), MV4-11. The note with it: read-out: IC50 (μM), proliferation of cells, MV4-11, MV4-11, incubated for 72 hours, tested form: phosphate.
Description: as §1
(1) human acute monocytic leukemia cell strain MV4-11 (expressing FLT3/ITD mutant gene);
as §2
For orientation: ATP-based viability assays read luminescence as a measure of living cells.

Test [3] concerns mouse TEL-FLT3-BaF3 (stably expressing FLT3 kinase). Nature of the test: Effects on proliferation of cells (Cell Titer-Glo), TEL-FLT3-BaF3. The settings on record: read-out: IC50 (μM), proliferation of cells, TEL-FLT3-BaF3, TEL-FLT3-BaF3, incubated for 72 hours, tested form: phosphate.
Description: as §1
(8) mouse TEL-FLT3-BaF3 (stably expressing FLT3 kinase);
as §2

Test [4] relates to subcutaneous xenograft tumor of human MV-4-11. The experiment in a line: Therapeutic effects on subcutaneous xenograft tumor of human MV-4-11 in nude mice. The note with it: MV-4-11 subcutaneous xenograft, 15 mg/kg intraperitoneal injection, 3 times a day for 21 days, tested form: phosphate. On the procedure:
Preparation of test samples: all samples were prepared with 5% anhydrous ethanol, 5% Cremophor EL and 90% physiological saline.
Animals: BALB/cA-nude mice, 6-7 weeks, female ♀ purchased from Shanghai Lingchang Biotechnology Co., Ltd. Production license number was SC×K(Hu)2013-0018; animal certification number was 2013001810589.
Feeding environment: SPF Level.
Experiment steps: human acute myeloid leukemia cells MV-4-11 were inoculated subcutaneously in nude mice, after the tumor grows to 80-150 mm^3, animals were randomly divided into groups with 6 mice each group. The dosage was 15 mg/kg, the drugs were administrated by intraperitoneal injection, 3 times a day for 21 days. The volume of tumor was measured, the weight of mouse was weighed and the data were recorded.
The formula for calculating the volume of tumor (V) was: […]
Wherein a and b represented length and width respectively.
T/C (%)=(T−T0)/(C−C0)×100
Wherein T and C were the volume of tumor when the experiment was completed; T0 and C0 were the volume of tumor when the experiment was started.
The inhibited rate of tumor was calculated, the results were shown as Table 4.
Background: In xenograft studies the graft and the host belong to different species.

The target in the next test is FLT3 kinase (Homo sapiens, UniProt P36888). The experiment in a line: Activity of inhibiting FLT3 kinase (fluorescein labeled peptide kinase assay). The settings on record: read-out: FLT3 (IC50); in vitro kinase assay, 28° C.; tested form: phosphate. On the procedure:
Activity of Inhibiting FLT3 Kinase
1. Preparation of 1 × Kinase Buffer and Termination Buffer:
(1) MnCl2-free 1× kinase buffer: 50 mM HEPES, pH 7.5, 0.0015% Brij-35, 10 mM MgCl2, 2 mM DTT;
(2) Termination buffer: 100 mM HEPES, pH 7.5, 0.015% Brij-35, 0.2% Coating Reagent #3, 50 mM EDTA.
2. Preparation of compounds for testing kinase: the compounds are diluted continuously.
(1) the compound was diluted to 50 times the maximum final concentration with 100% DMSO. […] of the solution containing the compound at this concentration was transferred to one hole of 96-well plate;
(2)10 concentrations of compounds were prepared by diluting 20 mL original solution with 60 mL DMSO;
(3) […] solution of 100% DMSO was added into two empty holes as compound-free control and enzyme-free control; (4) a transitional plate was prepared, 10 mL compounds at different concentrations were transferred from the original plate to the transitional plate respectively, 90 mL 1× kinase buffer was added, and then mixed under oscillation for 10 minutes;
(5) preparation of an experimental plate: 5 mL solution containing compounds was transferred from the hole of the transitional plate of the 96-well plate to the corresponding hole of 384-well plate.
(1) Preparation of 2.5× enzyme solution: enzyme was added to the 1× kinase buffer; […]
Data was read and collected.
(1) detected data was copied and converted […]

For test [5], the system named is human acute myeloid leukemia cell strain U937 (expressing wild-type FLT3 gene). Nature of the test: Effects on proliferation of tumor cells (Cell Titer-Glo), U937. The settings on record: read-out: IC50 (μM), proliferation of cells, U937, U937, incubated for 72 hours, tested form: phosphate.
Description: as §1
(5) human acute myeloid leukemia cell strain U937 (expressing wild-type FLT3 gene);
as §2

In the case of `Nc1sc(-c2c(F)cccc2F)nc1C(=O)Nc1cncnc1OCC1CCNCC1`, the IC50 in test [1] is 0.03 µM; in test [2], 0.33 µM; in test [3], 0.02 µM; at FLT3 kinase it was 17 nM; in test [5], 6.43 µM. Also, the “Inhibited Rate of Tumor (%)” value in test [4] turned out to be 69%.
